The record followed here is PubChem BioAssay AID589 (National Center for Advancing Translational Sciences (NCATS), 2007).

Molecules are shown by their SMILES. Only a part is listed here, and it is no random draw. Inconclusive results are not listed. Activity calls are given as the source filed them. Cut-off read from the data, not from the text of the source: active = max dye-equivalent concentration above about 10 nM; inconclusive = mostly about 1.1 nM to 9.6 nM; inactive = weaker than that.

This test in a line: qHTS Assay for Spectroscopic Profiling in 4-MU Spectral Region. The conditions noted are these: compound autofluorescence, 340/450 nm, 4-MU equivalents. An excerpt:
NIH Molecular Libraries Screening Centers Network [MLSCN] NIH Chemical Genomics Center [NCGC] […] Occasionally, the artifactual effect may originate from the compounds own spectral or other biophysical properties which generally tend to track its assay concentration. Pre-screening/profiling the library with respect to the compounds spectral properties should help one exclude false positives early on. While the most informative fluorescent profiling data set is obtained by performing a full excitation and emission scan of each well by using a monochromator-based plate reader, such an approach is practical only on a very limited scale as scanning each well requires long time. An alternative approach, applied here, is to perform plate reader scans using selected excitation and emission wavelength pairs to generate a multidimensional relational database that correlates compound concentration and the respective relative fluorescence intensity at a given wavelength set. A standard curve of 4-methylumbelliferone (4-MU) present on each plate as six-point concentration series, was used to compute a normalized fluorescence response, termed dye-equivalent concentration, for each compound at each concentration.
NCGC Assay Protocol Summary: Buffer: 100 mM Tris buffer, pH 8.0 Dye standard plate: The wells in columns 1 through 4 of a Kalypsys polypropylene 1536-well compound plate were filled with standard solutions of fluorophore corresponding to the spectral region of interest. Solutions of 4-MU were placed in the following wells: A1, B1: 3 mM, A2, B2: 300 uM, A3, B3: 30 uM, A4, B4: zero (DMSO), C1, D1: 3 uM, C2, D2: 900 nM, C3, D3: 300 nM, C4, D4: zero (DMSO). Assay Steps: Six uL of buffer were dispensed to 1536-well Greiner black plates. Compounds and dye standards (23 nL) were transferred via Kalypsys PinTool. The plates were incubated for 15 min at room temperature, and then read on ViewLux (Perkin-Elmer) High-throughput CCD imager using 340 nm and 450 nm excitation and emission filter set. Keywords: NIH Roadmap, MLSCN, MLI, MLSMR, qHTS, NCGC, Fluorescent Profiling, 4MU, 4-MU
(In general: In qHTS, concentration-response curves come from the screen itself.)
Consider `NCC[C@@H](N)CSP(=O)(O)O`, for which the result was inactive.

Turning to `O=[N+]([O-])c1ccc(C[As](=O)(O)O)cc1`, the outcome was inactive.

As to `C(Cc1nn[nH]n1)c1nn[nH]n1`, the outcome was inactive.

On to `[N-]=[N+]=NCC(O)CN=[N+]=[N-]` (centres undefined), for which the result was inactive.

As for `COc1ccccc1OP(C)(=O)Nc1ccc(C)c(C)c1` (centres undefined), the result was inactive.

Regarding `C/C1=C2N=C(/C=C3N=C(/C(C)=C4\[N-][C@@](C)([C@H]5N=C1[C@@](C)(CCC(=O)NC[C@H](C)OP(=O)([O-])O[C@@H]1[C@H](O)[C@H](n6cnc7cc(C)c(C)cc76)O[C@@H]1CO)[C@@H]5CC(N)=O)[C@](C)(CC(N)=O)[C@H]4CCC(N)=O)[C@@](C)(CC(N)=O)[C@@H]\3CCC(N)=O)C(C)(C)[C@@H]/2CCC(N)=O.[C-]#N.[Co+3]`, the result was inactive.

Turning to `CN(C(=O)Cc1ccccc1)[C@@H]1CC[C@@]2(CCCO2)C[C@H]1N1CCCC1`, the outcome was inactive.

Turning to `O=C(CO)Nc1ccc([As](=O)(O)O)cc1`, the outcome was inactive.

In the case of `COc1ccccc1OP(C)(=O)Nc1c(C)n(C)n(-c2ccccc2)c1=O` (centres undefined), the result was inactive.

As to `CCc1nc2c(n1)c1c(non1O)c1c2no[n+]1[O-]`, the outcome was inactive.

On to `CCN(CC)CC(O)COC(=O)C(O)(c1ccccc1)C1CCCCC1` (centres undefined), for which the result was inactive.

Consider `N#[O+].[C-]#N.[C-]#N.[C-]#N.[C-]#N.[C-]#N.[Fe+2].[Na+].[Na+]`, for which the outcome was inactive.

With `Cc1ccccc1NP(C)(=O)Nc1ccccc1C`, the result was inactive.

As to `C[C@@H](O)COc1ccc([As](=O)(O)O)cc1N`, the outcome was inactive.

For `NNC(NN)NN.n1nc(-c2nn[nH]n2)n[nH]1`, the outcome was inactive.

On to `CCOP(C)(=S)SCC(=O)NC(C)(CC)C(=O)O` (centres undefined), for which the outcome was inactive.

As to `c1nnnn1CCn1cnnn1`, the outcome was inactive.

As to `O=P(Nc1nccs1)(c1ccccc1)c1ccccc1`, the result was inactive.

On to `O=C(OC1CN2CCC1CC2)c1cccc(Cl)c1` (centres undefined), for which the outcome was inactive.

Turning to `CN(C)CCOC(=O)C(O)(c1ccccc1)C1CCCCC1` (centres undefined), the result was inactive.

As for `[N-]=[N+]=Nc1ccc([As](=O)(O)O)cc1`, the outcome was inactive.

As to `COC(=O)c1cc2c(s1)N=C(c1ccccc1)N(C)P2(=O)N1CCOCC1` (centres undefined), the result was inactive.

For the molecule `CP(=O)(Nc1ccccc1F)Oc1ccccc1` (centres undefined), the outcome was inactive.

As for `O=P1(Nc2nc3ccc(Cl)cc3s2)COc2ccccc2O1` (centres undefined), the outcome was inactive.

On to `NS(=O)(=O)Cc1ccc([As](=O)(O)O)cc1`, for which the outcome was inactive.

`CCOP1(=S)c2c(C)nn(CCC#N)c2N=C(c2ccc(F)cc2)N1C` (centres undefined): the outcome was inactive.

For `NC(=O)Nc1ccc([As](=O)(O)O)cc1`, the outcome was inactive.

On to `O=[As](O)(O)c1ccc([As](=O)(O)O)cc1`, for which the outcome was inactive.

`CCOP1(=S)c2c(C)nn(CCC#N)c2N=C(c2ccccc2F)N1C` (centres undefined): the outcome was inactive.

`O=P(Nc1nccs1)(c1ccccc1)c1nc2ccccc2s1` (centres undefined): the result was inactive.

Consider `O=P1(Nc2ccc(Br)cn2)COc2ccccc2OC1`, for which the result was inactive.

With `Cc1ccc(OCC(=O)OC2CN3CCC2CC3)cc1` (centres undefined), the outcome was inactive.

For the molecule `O=P1(Nc2ncccn2)COc2ccccc2OC1`, the outcome was inactive.

In the case of `Cc1nn(-c2ccccc2)c2c1P(=O)(N1CCOCC1)N(C)C(c1ccccc1)=N2` (centres undefined), the outcome was inactive.

For the molecule `Cc1nc2ccc3ccccc3c2s1.O=[N+]([O-])c1cc([N+](=O)[O-])c(O)c([N+](=O)[O-])c1`, the result was inactive.

Turning to `CN(C(=O)Cc1ccc(Cl)c(Cl)c1)[C@@H]1CCCC[C@H]1N1CCCC1`, the outcome was inactive.

As for `Clc1n[nH]nc1-c1nn[nH][15n]1`, the outcome was inactive.

With `CN(CCCl)Cc1cc(Cl)c(NC2=NCCN2)c(Cl)c1`, the result was inactive.

`O=P1(Nc2ccccn2)COc2ccccc2OC1`: the result was inactive.

Regarding `O=C(O)[C@@H](O)c1ccc([As](=O)(O)O)cc1`, the outcome was inactive.

As for `CP(=O)(NC(=O)Nc1ccccc1)Oc1ccccc1` (centres undefined), the outcome was inactive.

`O=C(COc1ccccc1)OC1CN2CCC1CC2` (centres undefined): the outcome was inactive.

`CP(=S)(Nn1cnnc1)Oc1ccccc1` (centres undefined): the result was inactive.

As for `N1=C(c2nnc(-c3nn[nH]n3)nn2)NNN1`, the outcome was inactive.

Turning to `[N-]=[N+]=NCC(N)=O`, the outcome was inactive.

Regarding `COc1ccccc1OP(C)(=O)Nc1ccc(C)cc1` (centres undefined), the result was inactive.

With `O=[As]c1ccc(S(=O)(=O)NCCO)cc1` (centres undefined), the outcome was inactive.

Consider `NC(=O)Nc1cc([As](=O)(O)O)cc(I)c1O`, for which the result was inactive.

Take `O=C(OC1CN2CCC1CC2)C12CC3CC(CC(C3)C1)C2` (centres undefined): the outcome was inactive.
